According to patent publication US20150225369A1, “DDR2 INHIBITORS FOR THE TREATMENT OF OSTEOARTHRITIS” (Merck Patent GmbH, priority 2012, published 2015):
pIC50: −log10 of the molar value.

Amino acid sequences for entries named in this document (tags omitted). Residues count along the entry.
UniProt Q16832, 22-855 limits assumed: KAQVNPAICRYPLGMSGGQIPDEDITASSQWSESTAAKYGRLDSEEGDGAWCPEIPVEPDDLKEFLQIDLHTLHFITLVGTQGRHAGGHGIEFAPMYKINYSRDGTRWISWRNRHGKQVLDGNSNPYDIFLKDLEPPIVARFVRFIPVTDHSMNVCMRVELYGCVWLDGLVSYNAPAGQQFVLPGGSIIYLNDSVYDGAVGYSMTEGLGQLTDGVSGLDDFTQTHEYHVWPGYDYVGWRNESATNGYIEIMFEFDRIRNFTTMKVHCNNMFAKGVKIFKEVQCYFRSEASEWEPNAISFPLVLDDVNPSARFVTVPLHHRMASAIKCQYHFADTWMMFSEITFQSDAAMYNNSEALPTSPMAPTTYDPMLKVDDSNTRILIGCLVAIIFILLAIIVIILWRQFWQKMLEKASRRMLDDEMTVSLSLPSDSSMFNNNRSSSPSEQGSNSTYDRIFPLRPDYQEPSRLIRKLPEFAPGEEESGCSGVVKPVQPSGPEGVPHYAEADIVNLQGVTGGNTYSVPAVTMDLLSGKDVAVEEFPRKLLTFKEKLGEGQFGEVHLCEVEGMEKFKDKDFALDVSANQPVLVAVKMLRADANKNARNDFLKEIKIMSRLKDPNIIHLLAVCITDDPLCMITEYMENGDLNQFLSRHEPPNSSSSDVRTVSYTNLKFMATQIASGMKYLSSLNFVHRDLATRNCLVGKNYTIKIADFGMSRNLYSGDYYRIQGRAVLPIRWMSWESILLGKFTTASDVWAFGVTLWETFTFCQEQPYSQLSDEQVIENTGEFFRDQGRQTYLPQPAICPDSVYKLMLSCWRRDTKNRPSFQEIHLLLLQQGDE

Target: HEK293 transfected with human DDR2 (Homo sapiens, UniProt Q16832)
Assay: Phospho-DDR2 cellular assay (collagen II induced DDR2 phosphorylation, ELISA)
Type: cell-based
Details: read-out: IC50 [p-DDR2]
Experimental: Assays were performed in a 384 well plate format, using cell line HEK293 transfected with human DDR2 (PLT460F_(DDR2)-P7-1)
Cells were seeded at a density of 10'000 cells/well in 384well poly-D-lysine coated Black/clear plate (Cellcoat Greiner) and incubated in DMEM medium in the presence of 10% fetal bovine serum at 37° C., 5% CO2 for 48 h. Medium was replaced by serum-free medium and cells were incubated at 37° C., 5% CO2 for 8 h. Compound to be tested in 5% DMSO or 5% DMSO and 50 μg/ml of chicken collagen II were added and cells were incubated at 37° C., 5% CO2 for 16 h
Cells were rinsed with ice-cold PBS, lysed with lysis buffer (M-PER Thermo #78501) for 30 min at room temperature and centrifuged for 1 min at 1000 RPM. In parallel, White High binding 384 well plates (Corning) were coated with mouse anti-human DDR2 capture antibody (R&D Systems kit DuoSet IC Human phospho-DDR2 ELISA), overnight at RT.
An aliquot of cell lysate was transferred to the coated plates and incubated for 2 h at RT. Plates were washed and mouse anti-phospho-tyrosine detection antibody (R&D Systems kit DuoSet IC Human phospho-DDR2 ELISA) conjugated to horse radish peroxidase (HRP) was added for 2 h at RT. Plates were washed and chemiluminescent substrate for HRP (Thermo) was added for 15 min at RT. Luminescence was measured on a luminometer.

## CNC(=O)c1cc(Oc2ccc(CNC(=O)Nc3cc(C(C)(C)C)on3)cc2)ccn1
  pIC50: 7.28
